scFv variants of Ab-14 (heavy chain) against a SARS-CoV-2 spike peptide

Reference: Engelhart et al. 2022, doi:10.1038/s41597-022-01779-4. File: FLAb, binding data.

Target peptide (SARS-CoV-2 spike, HR2 region): PDVDLGDISGINAS

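Variants in AAYL49 differ from the parent at up to three CDR positions; double and triple changes were sampled at random. In AlphaSeq, yeast of one mating type display the scFv and yeast of the other type display the target. Binding brings cells together so that they mate, and sequencing counts the barcode pairs among the diploids. Read counts were normalised to the haploid input and turned into Kd by a linear fit to BCL2-family pairs of known affinity, for each replicate. Each pool was mated in three replicate cultures.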

Ab-14 is the parent antibody, in scFv form: VH, then the linker GGGGSGGGGSGGGGS, then VL. The light chain is unchanged in all variants.
VH: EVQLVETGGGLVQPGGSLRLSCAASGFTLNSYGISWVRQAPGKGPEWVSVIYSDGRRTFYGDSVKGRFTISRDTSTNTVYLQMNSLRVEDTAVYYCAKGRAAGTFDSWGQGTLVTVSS
VL: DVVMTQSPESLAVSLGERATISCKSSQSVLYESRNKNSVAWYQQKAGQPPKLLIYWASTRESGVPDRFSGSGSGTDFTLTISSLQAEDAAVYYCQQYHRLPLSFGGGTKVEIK

The parent's heavy chain CDRs are GFTLNSYGIS, VIYSDGRRTFYGDSVK, GRAAGTFDS; each variant's own CDRs replace them letter for letter.
This list gathers variants with a substitution at V50 (VH, numbered from residue 1).
Kd is apparent (estimated from mating counts) and averaged on the log scale over replicates with a signal. Smaller is tighter.
A pair that was not seen in any replicate is written "nd"; this usually means weak binding, but a binder can also be missed.
Order: sorted from the lowest average up, undetected variants last.

* GFTLNSYGIS, CIYSDGRRTFYGDSVK, GEAAGTFDS: 510 nM (3 of 3 replicates; controls 2 of 9)
* GFTLNLYGIS, AIYSDGRRTIYGDSVK, GRAAGTFDS: 510 nM (3 of 3 replicates; controls 4 of 9)
* GFTLNPYGIS, NIYSDGRRTFYLDSVK, GRAAGTFDS: 1.1 µM (1 of 3 replicates; controls 0 of 9)
* GFKLNSYGIQ, SIYSDGRRTFYGDSVK, GRAAGTFDS: 1.8 µM (1 of 3 replicates; controls 0 of 9)
* GFTLNSYGIS, TIYSDGRRTFYGDSVK, FRAAGTFDS: 2.4 µM (3 of 3 replicates; controls 4 of 9)
* GFTLNSYHIS, GIYSDGRRTFYGDSVK, GLAAGTFDS: 6.1 µM (2 of 3 replicates; controls 3 of 9)
* GFTLNSYGIS, EIYSDGMRTFYGDSVK, GRAAGTRDS: 7.0 µM (1 of 3 replicates; controls 1 of 9)
* GFDMNSYGIS, YIYSDGRRTFYGDSVK, GRAAGTFDS: 7.9 µM (1 of 3 replicates; controls 1 of 9)
* GFTLNSYGIS, YIYSDGCRTFYGDSVK, GRAAGTMDS: 9.9 µM (1 of 3 replicates; controls 0 of 9)
* GFTLNSGGIS, YIYSDGMRTFYGDSVK, GRAAGTFDS: 18 µM (3 of 3 replicates; controls 2 of 9)
* GFTLNSYGIS, TIYSDGKRTFHGDSVK, GRAAGTFDS: 19 µM (1 of 3 replicates; controls 3 of 9)
* GFTLNSYGIS, CIYSDQRRSFYGDSVK, GRAAGTFDS: 26 µM (1 of 3 replicates; controls 1 of 9)
* GFTLNSYGIS, LIYSDGRNTFYGDSVK, GRAAGTFDS: 27 µM (1 of 3 replicates; controls 4 of 9)
* GFCLNSYGIS, GIYSDGRRFFYGDSVK, GRAAGTFDS: 29 µM (1 of 3 replicates; controls 0 of 9)
* GFTLNSYGIS, SIYRDGRRTFYGDSVW, GRAAGTFDS: 57 µM (2 of 3 replicates; controls 4 of 9)
* GFFLNSYGIS, PIYSDGRRVFYGDSVK, GRAAGTFDS: 62 µM (2 of 3 replicates; controls 3 of 9)
* GFTLNSYGIS, QIYSDGRRTFYGHSVK, GRAASTFDS: 62 µM (2 of 3 replicates; controls 3 of 9)
* GFTLNSYGIS, HIYNDGRRTFYGDSVK, GLAAGTFDS: 68 µM (1 of 3 replicates; controls 1 of 9)
* GFTLNSYGIS, AIYSDGRREFYGDSVK, GRAASTFDS: 76 µM (1 of 3 replicates; controls 1 of 9)
* GFTPNSYGIS, MIYSDGRRTFYGDSCK, GRAAGTFDS: 81 µM (1 of 3 replicates; controls 0 of 9)
* GFTLNSYGIS, EIYSDGRRTFGGDSVK, GRAANTFDS: 120 µM (1 of 3 replicates; controls 0 of 9)
* GFTLNSYGIS, FIYSDPRRTFPGDSVK, GRAAGTFDS: 760 µM (2 of 3 replicates; controls 2 of 9)
* GFTLNSYGIS, KIYSDGRRTFYGDSVK, GRAAGTFDS: nd (0 of 3 replicates; controls 1 of 9)
* GFTLNSYYQS, LIYSDGRRTFYGDSVK, GRAAGTFDS: nd (0 of 3 replicates; controls 0 of 9)
* GTTLNSYGIS, DIYSDGRRTFYGDSVK, GRAARTFDS: nd (0 of 3 replicates; controls 2 of 9)
* GFTLNSHGIS, FIYSDGRRTFYGDSVK, GRAAGTFDS: nd (0 of 3 replicates; controls 3 of 9)
* GFTLNSYGIS, MIYTDGRRTFYGDSVK, GAAAGTFDS: nd (0 of 3 replicates; controls 4 of 9)
* GFTLNSYGIS, LIYSDGRRTFYGDSVK, GRDANTFDS: nd (0 of 3 replicates; controls 0 of 9)
* GFTLNSYGIS, NILSRGRRTFYGDSVK, GRAAGTFDS: nd (0 of 3 replicates; controls 1 of 9)
* GFTLNSYGIS, PIYSDGRRTFYGLSVK, MRAAGTFDS: nd (0 of 3 replicates; controls 1 of 9)
* GFTLNEYGIS, GIYSDGRRTFYGDSVK, GRAAGTFDS: nd (0 of 3 replicates; controls 0 of 9)
* GFTLNSYGIS, KIYSDGRRTFYGDSVW, GRAAGTNDS: nd (0 of 3 replicates; controls 0 of 9)
* GFTLNSYGIS, CRYSDGRRTFYGDSVK, GRAAGTFDS: nd (0 of 3 replicates; controls 0 of 9)
* GFTLNSYGIS, AIYSDGRRTFYGDSVK, PRAAGTYDS: nd (0 of 3 replicates; controls 0 of 9)
* GDTLNSYGIS, QIYSYGRRTFYGDSVK, GRAAGTFDS: nd (0 of 3 replicates; controls 0 of 9)
* GFNLNSYGIS, EIYSDGRRTFYGDSVK, SRAAGTFDS: nd (0 of 3 replicates; controls 0 of 9)
* GFTLNSYGIS, RIYSDGRRTFYGDSVK, GKAAYTFDS: nd (0 of 3 replicates; controls 0 of 9)
* GFTLNSYGIS, NIYYDGRRTFYGDSVK, GRAAGTFLS: nd (0 of 3 replicates; controls 1 of 9)
* GFTLNSYGIS, RIYSDGRRTFYGDSVK, GRAAGVFDS: nd (0 of 3 replicates; controls 0 of 9)
* GFTLNSYGFS, TIYSDGRRTFYGDSVK, GRAAGTFDR: nd (0 of 3 replicates; controls 0 of 9)
* GSTLNSYGIS, CIYSDGRRDFYGDSVK, GRAAGTFDS: nd (0 of 3 replicates; controls 0 of 9)
* GFTLNSYGIS, LIDSDGRRTFYGDSEK, GRAAGTFDS: nd (0 of 3 replicates; controls 0 of 9)

From the list, the first 5 with no signal in any replicate:

CDR-H1,CDR-H2,CDR-H3,Kd (apparent),seen in,signal with controls
GFTLNSYGIS,KIYSDGRRTFYGDSVK,GRAAGTFDS,nd,0 of 3,1 of 9
GFTLNSYYQS,LIYSDGRRTFYGDSVK,GRAAGTFDS,nd,0 of 3,0 of 9
GTTLNSYGIS,DIYSDGRRTFYGDSVK,GRAARTFDS,nd,0 of 3,2 of 9
GFTLNSHGIS,FIYSDGRRTFYGDSVK,GRAAGTFDS,nd,0 of 3,3 of 9
GFTLNSYGIS,MIYTDGRRTFYGDSVK,GAAAGTFDS,nd,0 of 3,4 of 9

Three control strains display no target. For library AAYL49, 15% of the pairings with them gave a signal, with a median of 11 µM and one signal in twenty below 680 nM, so weak values seen in few replicates may be background. The control count says in how many pairings with the empty strains this scFv gave a signal.
Parent in this assay: reference entry 4.4 nM, copy in this library 13 µM (one replicate of three).